Here are results for one substance from patent US12325710B2, “Substituted 1,2,3,4,5,6-hexahydroazepino[4,5-b]indoles for treating brain disorders” (priority 2019, dated 2025).

In data set [1] the test system is larval zebrafish. The data set can be described thus: Larval zebrafish movement activity during a battery of light and acoustic stimuli. As to conditions: 1 h treatment, concentration-response. The text has this:
Stimuli applied over time are indicated under the heatmaps. Colors indicate bright LED light of respective colors, black traces represent the waveforms of acoustic stimuli, and gray vertical lines indicate physical tapping as secondary acoustic stimuli.
Response is […] proportional to classification accuracy; 0-20% indicates no ability and 100% indicates perfect classification. […] The solid line denotes the median and the shading denotes a 95th percentile confidence interval calculated by bootstrap. N=8 wells/condition (64 animals/condition).

For data set [2], the system named is larval zebrafish expressing GCaMP5. In words: Seizurogenic potential in larval zebrafish expressing GCaMP5. The data set is classed as in vivo. As to conditions: 200 μM; PTZ positive control. On the procedure: Transgenic larval zebrafish expressing GCaMP5G were immobilized in agarose, treated with compounds, and imaged over time. The known seizure-inducing compound PTZ was used as a positive control. All compounds were treated at 200 μM (n=2 per condition).

The nature of data set [3]: Solubility in 0.9% saline. The conditions noted are these: saline (0.9%) based vehicles with co-solvents/additives, water.
The test system of data set [4] is zebrafish. The data set can be described thus: Zebrafish developmental toxicity assay. As to conditions: 100 μM; 2 and 5 dpf.
The test system of data set [5] is larval zebrafish. In words: Heart rate and arrhythmia in immobilized larval zebrafish.

ibogaine [reference compound]: the “behavioral phenotype with increasing concentration versus vehicle and lethal control (eugenol, 100 μM)” value in data set [1] is “more phenotypically distinct from the vehicle control, while more closely resembling the lethal control”. For the same substance, the “seizure induction (neural activity)” value in data set [2] is reported as “Neither ibogaine nor TBG produced excessive neural activity”. Besides, the figures for the “solubility (in words)” value in data set [3] and in data set [3] (listed as ibogaine hydrochloride) were “lack of water solubility” and “limited solubility”, respectively. The “malformations, mortality, non-viable fish” value in data set [4] is “significantly increased malformations and mortality”. Also, in data set [5], the “heart rate (bradycardia)” value is listed as “visually noticeable decrease in heart rate”.
